# Earlier results in US20250134912A1, “COMPOSITIONS COMPRISING COCRYSTALS OF […] ACID AND THEANINE WITH TROMETHAMINE AND METHODS OF USE” (Theaprin Pharmaceuticals, Inc., priority 2021, published 2025).
# Target: SARS-COV-2 protease Mpro (Severe acute respiratory syndrome coronavirus 2, UniProt P0DTD1)
# Details: identified via virtual screening and bioassay validation
smiles,measurement,value
"OCCN(CCO)c1nc(N2CCCCC2)c2nc(N(CCO)CCO)nc(N3CCCCC3)c2n1 [dipyridamole, 2,6 bis-(diethanolamino)-4,8 dipiperidino-pyrimido-(5,4-d)pyrimidine]",binding to SARS-COV-2 protease Mpro,bound
